Laboratory results taken from article PMC139967.

Experiments:
myosin-1c IQ1 = myosin-1c IQ1 (UniProt O00159)
myosin-1c IQ3 = myosin-1c IQ3 (UniProt O00159)
myosin-1c IQ2 = myosin-1c IQ2 (UniProt O00159)

Kd (myosin-1c IQ1): 5 µM | Kd (myosin-1c IQ3): 3 µM | Kd (myosin-1c IQ2): 5 µM
Substance: calmodulin (from UniProt P0DP23)
